# Where two headings read alike, the source gives them in different places.
# Legend:
# [1] = test system: mRNA expressed from the genes (A) to (D) in rat liver; assay: Behavior of genes (mRNA expression level, oligo-DNA microarray) in rat liver after 28-day oral administration; type: in vivo
# Method: A test solution was prepared by dissolving each of the carcinogens and the non-carcinogens shown in Tables 2 to 6 in the corresponding solvent shown in Tables 2 to 6. Each of the thus prepared test solutions and the solvents used for the preparation was administered by oral gavage to rats in each group. As the rats, male rats (F344 SPF rats) at 5 weeks of age obtained from Charles River Laboratories Japan, Inc. were used. The animals were divided into groups, each containing four individuals. The volume of the solvent administered to the vehicle control group was set to the same volume as that of the test solution administered to the carcinogen administration group or the non-carcinogen administration group. The administration of the test solution or the solvent was performed once daily for 28 days. Apiece was excised from the liver of each of the rats after a lapse of 28 days from the initiation of the administration, and the total RNA was extracted and purified.
# The expression level of mRNA was compared between each of the chemical substance administration groups and the corresponding vehicle control group, and genes that satisfy the requirements described in (A) to (D) were selected, respectively.
# The case where the expression level of mRNA in the carcinogen administration group or the non-carcinogen administration group is 1.5 times or more or 1/1.5 or less of the expression level of the corresponding mRNA expressed in the control group was determined to be significant. In this connection, the determination as to whether or not the change is significant was performed by taking into consideration the direction of increase or decrease in the expression level. In the case where the direction of increase or decrease is different as compared with the case where another carcinogen was administered, the change was determined to be not significant.
# liver = settings: cited from earlier work
# [2] = gene group (A), Unigene No. Rn.167075
# [3] = gene group (C), Unigene No. Rn.120914
# [4] = classification of the substance (Cr+/Cr−)
smiles,measurement,setting,value
"Nc1ccc(N)c([N+](=O)[O-])c1 [TS012, 2-Nitro-p-phenylenediamine]","Behavior of gene caused by administration of chemical substance, Gene No. 4846","[1]; gene group (A), Unigene No. Rn.144554",−
same,"Behavior of gene caused by administration of chemical substance, Gene No. 2026",[1]; [2],+
same,"Behavior of gene caused by administration of chemical substance, Gene No. 4218",[1]; [2],−
same,"Behavior of gene caused by administration of chemical substance, Gene No. 6182","[1]; gene group (A), Unigene No. Rn.5834",−
same,"Behavior of gene caused by administration of chemical substance, Gene No. 5600","[1]; gene group (A), Unigene No. Rn.9836",−
same,"Behavior of gene caused by administration of chemical substance, Gene No. 1494","[1]; gene group (B), Unigene No. Rn.1430",+
same,"Behavior of gene caused by administration of chemical substance, Gene No. 2045","[1]; gene group (B), Unigene No. Rn.19329",−
same,"Behavior of gene caused by administration of chemical substance, Gene No. 2203","[1]; gene group (B), Unigene No. Rn.21240",−
same,"Behavior of gene caused by administration of chemical substance, Gene No. 533","[1]; gene group (C), Unigene No. Rn.106184",+
same,"Behavior of gene caused by administration of chemical substance, Gene No. 725","[1]; gene group (C), Unigene No. Rn.108075",+
same,"Behavior of gene caused by administration of chemical substance, Gene No. 1163","[1]; gene group (C), Unigene No. Rn.11766",−
same,"Behavior of gene caused by administration of chemical substance, Gene No. 4973","[1]; gene group (C), Unigene No. Rn.118529",−
same,"Behavior of gene caused by administration of chemical substance, Gene No. 4095","[1]; gene group (C), Unigene No. Rn.119024",−
same,"Behavior of gene caused by administration of chemical substance, Gene No. 1334",[1]; [3],−
same,"Behavior of gene caused by administration of chemical substance, Gene No. 6620",[1]; [3],−
same,"Behavior of gene caused by administration of chemical substance, Gene No. 6303","[1]; gene group (C), Unigene No. Rn.123063",+
same,"Behavior of gene caused by administration of chemical substance, Gene No. 5878","[1]; gene group (C), Unigene No. Rn.143213",+
same,"Behavior of gene caused by administration of chemical substance, Gene No. 1131","[1]; gene group (C), Unigene No. Rn.144946",+
same,"Behavior of gene caused by administration of chemical substance, Gene No. 1562","[1]; gene group (C), Unigene No. Rn.14744",−
same,"Behavior of gene caused by administration of chemical substance, Gene No. 1741","[1]; gene group (C), Unigene No. Rn.1647",+
same,"Behavior of gene caused by administration of chemical substance, Gene No. 893","[1]; gene group (C), Unigene No. Rn.164817",−
same,"Behavior of gene caused by administration of chemical substance, Gene No. 6026","[1]; gene group (C), Unigene No. Rn.167685",−
same,"Behavior of gene caused by administration of chemical substance, Gene No. 154","[1]; gene group (C), Unigene No. Rn.185941",−
same,"Behavior of gene caused by administration of chemical substance, Gene No. 1993","[1]; gene group (C), Unigene No. Rn.18728",−
same,"Behavior of gene caused by administration of chemical substance, Gene No. 813","[1]; gene group (C), Unigene No. Rn.201760",+
same,"Behavior of gene caused by administration of chemical substance, Gene No. 2494","[1]; gene group (C), Unigene No. Rn.23969",−
same,"Behavior of gene caused by administration of chemical substance, Gene No. 2546","[1]; gene group (C), Unigene No. Rn.24561",−
same,"Behavior of gene caused by administration of chemical substance, Gene No. 3776","[1]; gene group (C), Unigene No. Rn.43232",−
same,"Behavior of gene caused by administration of chemical substance, Gene No. 3929","[1]; gene group (C), Unigene No. Rn.4620",−
same,"Behavior of gene caused by administration of chemical substance, Gene No. 1119","[1]; gene group (C), Unigene No. Rn.9757",−
same,"Behavior of gene caused by administration of chemical substance, Gene No. 6742","[1]; gene group (C), Unigene No. Rn.9779",−
same,"Behavior of gene caused by administration of chemical substance, Gene No. 5634","[1]; gene group (C), Unigene No. Rn.9862",−
same,"Behavior of gene caused by administration of chemical substance, Gene No. 5726","[1]; gene group (D), Unigene No. Rn.9939",−
"O=C(c1ccccc1)C(O)c1ccccc1 (centres unmarked) [TS038, Benzoin]",Liver carcinogenicity,liver; [4],Cr−
"ClC(Cl)Cl [TS056, Chloroform]",Liver carcinogenicity,liver; [4],Cr+
"O=[N+]([O-])c1ccc2ccc3cccc4ccc1c2c34 [TS064, 1-Nitropyrene]",Liver carcinogenicity,liver; classification Cr+/Cr−,Cr−
"CC(N)=O [TS067, Acetamide]",Liver carcinogenicity,liver; in vivo,Cr+
"Cc1ccccc1[N+](=O)[O-] [TS087, o-Nitrotoluene]",Liver carcinogenicity,liver; classification Cr+/Cr−,Cr+

# Source: patent publication US20110039721A1, “METHOD FOR PREDICTION ABOUT CARCINOGENICITY OF SUBSTANCE IN RODENT” (Chemicals Evaluation and Research Institute, priority 2007, published 2011)
